# Read-outs that look alike come from different tables or passages of the source.
# Target: recombinant human GST-Syk (Homo sapiens (Human), UniProt P43405)
# Assay: Homogeneous Time-Resolved Fluorescence (HTRF) assay for the recombinant human Syk enzyme
# Format: biochemical
# Conditions: recombinant human GST-Syk 5 pM, ATP 25 μM
# Experimental: Homogeneous Time-Resolved Fluorescence (HTRF) Assay for the Recombinant Human Syk Enzyme:
# A recombinant GST-hSyk fusion protein was used to measure potency of compounds to inhibit human Syk activity. The recombinant human GST-Syk ([…] #08-176) (5 pM final concentration) was incubated with various concentrations of the inhibitor diluted in DMSO (0.1% final concentration) for 10 minutes at room temperature in 15 mM Tris-HCl (pH 7.5), 0.01% tween 20, 2 mM DTT in 384 well plate format. To initiate the reaction the biotinylated substrate peptide (250 nM final concentration) that contains the phosphorylation site for Syk was added with magnesium (5 mM final concentration) and ATP (25 μM final concentration). Final volume of the reaction was 10 μL. Phosphorylation of the peptide was allowed to proceed for 45 minutes at room temperature. To quench the reaction and detect the phosphorylated product, 2 nM of a Europium-anti-phosphotyrosine antibody (Perkin Elmer #AD0161) and 70 nM SA-APC (Perkin-Elmer #CR130-100) were added together in 15 mM Tris pH 7.5, 40 mM EDTA, 0.01% tween 20. Final volume of the quenching solution was 10 μL. The resulting HTRF signal was measured after 30 minutes on an EnVision (Perkin-Elmer) reader using a time-resolved fluorescence protocol. IC50 was determined following 10-dose titration (10 μM to 0.508 nM) and four parameter logistic curve fitting using the Merck Assay Data Analyzer. The rhSyk activity (IC50) is expressed as +++(100 nM or less), ++(between 100 and 1000 nM), +(between 1 and 10 μM). IC50 values are also provided for the following representative compounds: […]
# [1] = 10-dose titration, read-out: rhSyk (nM) IC50
# [2] = class symbols, read-out: rhSyk activity (IC50)
Structure (SMILES),IC50 [1] [nM],IC50 [2] [nM]
"Cc1cc(Nc2cc(C(F)(F)F)ccn2)nc(-c2cnc(C(C)(O)[C@H]3CC[C@H](C(=O)O)CC3)s2)c1 (single isomer, unassigned) [Example 4, trans-4-{(1R or 1S)-1-Hydroxy-1-[5-(4-methyl-6-{[4-(trifluoromethyl)pyridin-2-yl]amino}pyridin-2-yl)-1,3-thiazol-2-yl]ethyl}cyclohexanecarboxylic acid]",0.5,–
"Cc1cc(Nc2cc(C)c(F)cn2)nc(-c2cnc(C(C)(O)[C@H]3CC[C@H](C(=O)O)CC3)s2)c1 (single isomer, unassigned) [Example 11, trans-4-[(1R or 1S)-1-(5-{6-[(5-fluoro-4-methylpyridine-2-yl)amino]-4-methylpyridine-2-yl}-1,3-thiazol-2-yl)-1-hydroxyethyl]cyclohexanecarboxylic acid]",0.5,≤ 100
"Cc1cc(Nc2cc(C)c(F)cn2)nc(-c2cnc(C(C)(O)[C@H]3CC[C@H](C(=O)O)CC3)s2)c1 (single isomer, unassigned) [Example 10, trans-4-[(1R or 1S)-1-(5-{6-[(5-fluoro-4-methylpyridine-2-yl)amino]-4-methylpyridine-2-yl}-1,3-thiazol-2-yl)-1-hydroxyethyl]cyclohexanecarboxylic acid]",0.1,≤ 100
"Cc1cc(Nc2cc(C(F)(F)F)ccn2)nc(-c2cnc(C(C)(O)[C@H]3CC[C@H](C(=O)O)CC3)s2)c1 (single isomer, unassigned) [Example 3, trans-4-{(1R or 1S)-1-Hydroxy-1-[5-(4-methyl-6-{[4-(trifluoromethyl)pyridin-2-yl]amino}pyridin-2-yl)-1,3-thiazol-2-yl]ethyl}cyclohexanecarboxylic acid]",–,≤ 100

# Second part, the molecule after the results:
IC50 [1] [nM],IC50 [2] [nM],Structure (SMILES)
0.5,–,"Cc1cc(Nc2cc(C(F)(F)F)ccn2)nc(-c2cnc(C(C)(O)C3CCC(C(=O)O)C3)s2)c1 (stereo not drawn) [Example 14-14, 3-{1-hydroxy-1-[5-(4-methyl-6-{[4-(trifluoromethyl)pyridin-2-yl]amino}pyridin-2-yl)-1,3-thiazol-2-yl]ethyl}cyclopentanecarboxylic acid]"
0.5,≤ 100,"CCC(O)(c1ncc(-c2cc(C)cc(Nc3cc(C(F)(F)F)ccn3)n2)s1)[C@H]1CC[C@H](C(=O)O)CC1 (single isomer, unassigned) [Example 14-15, trans-4-{1-hydroxy-1-[5-(4-methyl-6-{[4-(trifluoromethyl)pyridin-2-yl]amino}pyridin-2-yl)-1,3-thiazol-2-yl]propyl}cyclohexanecarboxylic acid]"
–,≤ 100,"Cc1cc(Nc2cc(C)c(F)cn2)nc(-c2cnc(C(C)(O)[C@H]3CC[C@H](C(=O)O)CC3)s2)c1 (single isomer, unassigned) [Example 14-9, trans-4-[1-(5-{6-[(5-fluoro-4-methylpyridin-2-yl)amino]-4-methylpyridin-2-yl}-1,3-thiazol-2-yl)-1-hydroxyethyl]cyclohexanecarboxylic acid]"
–,≤ 100,"Cc1cc(Nc2cc(C(F)(F)F)ccn2)nc(-c2cnc(C(C)(O)C3CCC(C(=O)O)C3)s2)c1 (stereo not drawn) [Example 14-11, 3-{1-hydroxy-1-[5-(4-methyl-6-{[4-(trifluoromethyl)pyridin-2-yl]amino}pyridin-2-yl)-1,3-thiazol-2-yl]ethyl}cyclopentanecarboxylic acid]"
–,≤ 100,"CCC(O)(c1ncc(-c2cc(C)cc(Nc3cc(C(F)(F)F)ccn3)n2)s1)[C@H]1CC[C@H](C(=O)O)CC1 (relative stereo) [Example 14-16, trans-4-{1-hydroxy-1-[5-(4-methyl-6-{[4-(trifluoromethyl)pyridin-2-yl]amino}pyridin-2-yl)-1,3-thiazol-2-yl]propyl}cyclohexanecarboxylic acid]"

# Source: patent US9120785B2, “Pyridyl aminopyridines as Syk inhibitors” (Merck Sharp & Dohme Corp., priority 2011, dated 2015)
